The target in this assay is T1, D-3-phosphoglycerate dehydrogenase (Homo sapiens, UniProt O43175).
T1 sequence (O43175 whole entry): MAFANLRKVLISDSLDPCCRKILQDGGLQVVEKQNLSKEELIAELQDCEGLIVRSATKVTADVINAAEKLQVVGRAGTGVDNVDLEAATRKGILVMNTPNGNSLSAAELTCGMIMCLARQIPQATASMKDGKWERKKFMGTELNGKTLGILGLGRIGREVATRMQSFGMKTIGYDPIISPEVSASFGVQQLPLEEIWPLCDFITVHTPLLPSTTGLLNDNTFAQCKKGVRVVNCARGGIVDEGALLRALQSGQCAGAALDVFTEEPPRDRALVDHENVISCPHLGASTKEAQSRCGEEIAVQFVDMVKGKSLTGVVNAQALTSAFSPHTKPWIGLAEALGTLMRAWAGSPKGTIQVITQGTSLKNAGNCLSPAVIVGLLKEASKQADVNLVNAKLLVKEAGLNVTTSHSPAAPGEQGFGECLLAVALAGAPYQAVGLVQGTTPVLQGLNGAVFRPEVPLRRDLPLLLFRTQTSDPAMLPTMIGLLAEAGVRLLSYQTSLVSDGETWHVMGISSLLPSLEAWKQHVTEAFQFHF
In words: Inhibition of human PHGDH by fluorescence based analysis.

pIC50: −log10 of the molar value.

In general, pIC50 refers to −log10 of the IC50, conventionally taken in molar units. Read a high pIC50 as a low IC50. In the case of `O=C1NC[C@@H](COc2cc3[nH]c(C(=O)N[C@H](CO)c4ccc(C(=O)O)cc4)cc3cc2Cl)O1`, the negative logarithm of the IC50 (pIC50) is 4.24.

Values taken from ChEMBL document CHEMBL5230140, “A retrospective overview of PHGDH and its inhibitors for regulating cancer metabolism” (Eur J Med Chem, 2021).
